Tests used:
Assay in all cases: Kinase profiling in a biochemical assay panel (mobility shift assays and ELISA), %-inhibition at 1 μM; selectivity entropy
[1] = target: panel of more than 300 wild-type and mutant kinases (313 kinase panel) (Homo sapiens, UniProt Q13555)
[2] = target: T1, panel of more than 300 wild-type and mutant kinases (313 kinase panel) (Homo sapiens, UniProt Q9UF33)
T1 sequence (Q9UF33 23-1036): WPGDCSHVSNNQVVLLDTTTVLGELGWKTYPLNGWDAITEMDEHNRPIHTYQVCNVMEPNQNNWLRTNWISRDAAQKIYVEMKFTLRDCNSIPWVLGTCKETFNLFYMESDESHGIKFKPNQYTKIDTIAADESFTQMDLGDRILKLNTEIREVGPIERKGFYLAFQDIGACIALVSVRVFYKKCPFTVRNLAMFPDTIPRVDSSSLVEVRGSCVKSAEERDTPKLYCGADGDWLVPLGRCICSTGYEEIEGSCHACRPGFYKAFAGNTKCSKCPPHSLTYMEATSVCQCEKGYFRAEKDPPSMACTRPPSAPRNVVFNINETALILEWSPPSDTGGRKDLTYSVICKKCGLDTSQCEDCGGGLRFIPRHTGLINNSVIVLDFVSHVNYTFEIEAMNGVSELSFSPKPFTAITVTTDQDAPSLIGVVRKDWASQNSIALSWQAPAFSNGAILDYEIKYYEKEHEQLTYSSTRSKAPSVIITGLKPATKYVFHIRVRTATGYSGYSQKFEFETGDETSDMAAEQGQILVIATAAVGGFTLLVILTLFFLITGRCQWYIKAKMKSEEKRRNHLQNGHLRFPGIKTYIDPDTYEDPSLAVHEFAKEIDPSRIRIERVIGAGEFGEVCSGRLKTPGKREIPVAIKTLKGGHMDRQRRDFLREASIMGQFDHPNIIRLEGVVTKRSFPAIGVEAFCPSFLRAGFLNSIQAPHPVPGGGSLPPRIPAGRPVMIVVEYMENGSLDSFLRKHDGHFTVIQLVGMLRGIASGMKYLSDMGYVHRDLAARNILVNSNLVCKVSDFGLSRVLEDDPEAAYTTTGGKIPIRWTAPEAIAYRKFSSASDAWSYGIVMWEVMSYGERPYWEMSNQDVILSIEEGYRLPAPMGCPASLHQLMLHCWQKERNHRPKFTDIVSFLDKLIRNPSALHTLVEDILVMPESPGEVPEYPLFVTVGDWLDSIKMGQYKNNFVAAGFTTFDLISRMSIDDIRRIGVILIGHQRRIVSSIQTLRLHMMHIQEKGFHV

Amino acid sequences for entries named in this document (tags omitted). Residues count along the entry.
UniProt Q13555, whole entry, stated change not applied: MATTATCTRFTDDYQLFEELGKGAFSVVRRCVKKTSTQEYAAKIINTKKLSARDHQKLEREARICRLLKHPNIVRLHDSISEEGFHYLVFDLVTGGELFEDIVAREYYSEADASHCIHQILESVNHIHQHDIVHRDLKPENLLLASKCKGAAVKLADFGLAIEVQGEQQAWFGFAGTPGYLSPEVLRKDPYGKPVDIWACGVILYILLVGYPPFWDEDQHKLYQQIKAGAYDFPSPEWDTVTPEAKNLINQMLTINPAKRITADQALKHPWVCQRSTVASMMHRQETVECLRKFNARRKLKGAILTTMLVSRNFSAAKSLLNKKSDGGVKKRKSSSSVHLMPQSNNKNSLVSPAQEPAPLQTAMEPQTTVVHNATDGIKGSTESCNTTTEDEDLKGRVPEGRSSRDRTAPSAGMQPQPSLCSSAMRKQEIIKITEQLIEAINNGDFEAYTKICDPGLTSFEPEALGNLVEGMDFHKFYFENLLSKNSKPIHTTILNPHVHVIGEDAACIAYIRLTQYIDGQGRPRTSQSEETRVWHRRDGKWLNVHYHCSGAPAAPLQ
UniProt P78362, whole entry, stated change not applied: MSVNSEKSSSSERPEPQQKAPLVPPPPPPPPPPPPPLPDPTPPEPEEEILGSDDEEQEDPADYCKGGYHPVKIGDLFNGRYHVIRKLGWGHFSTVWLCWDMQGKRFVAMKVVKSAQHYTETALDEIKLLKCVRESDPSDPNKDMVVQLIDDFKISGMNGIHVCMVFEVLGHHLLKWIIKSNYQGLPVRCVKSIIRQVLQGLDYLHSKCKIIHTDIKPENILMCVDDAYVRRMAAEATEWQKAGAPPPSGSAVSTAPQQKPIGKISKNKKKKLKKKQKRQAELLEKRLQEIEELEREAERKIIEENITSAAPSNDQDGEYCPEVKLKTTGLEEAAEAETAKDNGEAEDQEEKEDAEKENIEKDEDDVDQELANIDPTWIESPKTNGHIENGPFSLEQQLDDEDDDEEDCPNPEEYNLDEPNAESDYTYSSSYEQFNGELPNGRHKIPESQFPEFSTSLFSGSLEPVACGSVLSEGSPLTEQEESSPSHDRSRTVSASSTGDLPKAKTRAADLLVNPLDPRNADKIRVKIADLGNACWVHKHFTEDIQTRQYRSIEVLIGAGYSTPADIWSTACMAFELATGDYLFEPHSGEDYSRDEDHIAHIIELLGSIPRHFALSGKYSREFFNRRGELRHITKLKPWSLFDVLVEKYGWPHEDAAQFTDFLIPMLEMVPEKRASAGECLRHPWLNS
UniProt Q02779, whole entry, stated change not applied: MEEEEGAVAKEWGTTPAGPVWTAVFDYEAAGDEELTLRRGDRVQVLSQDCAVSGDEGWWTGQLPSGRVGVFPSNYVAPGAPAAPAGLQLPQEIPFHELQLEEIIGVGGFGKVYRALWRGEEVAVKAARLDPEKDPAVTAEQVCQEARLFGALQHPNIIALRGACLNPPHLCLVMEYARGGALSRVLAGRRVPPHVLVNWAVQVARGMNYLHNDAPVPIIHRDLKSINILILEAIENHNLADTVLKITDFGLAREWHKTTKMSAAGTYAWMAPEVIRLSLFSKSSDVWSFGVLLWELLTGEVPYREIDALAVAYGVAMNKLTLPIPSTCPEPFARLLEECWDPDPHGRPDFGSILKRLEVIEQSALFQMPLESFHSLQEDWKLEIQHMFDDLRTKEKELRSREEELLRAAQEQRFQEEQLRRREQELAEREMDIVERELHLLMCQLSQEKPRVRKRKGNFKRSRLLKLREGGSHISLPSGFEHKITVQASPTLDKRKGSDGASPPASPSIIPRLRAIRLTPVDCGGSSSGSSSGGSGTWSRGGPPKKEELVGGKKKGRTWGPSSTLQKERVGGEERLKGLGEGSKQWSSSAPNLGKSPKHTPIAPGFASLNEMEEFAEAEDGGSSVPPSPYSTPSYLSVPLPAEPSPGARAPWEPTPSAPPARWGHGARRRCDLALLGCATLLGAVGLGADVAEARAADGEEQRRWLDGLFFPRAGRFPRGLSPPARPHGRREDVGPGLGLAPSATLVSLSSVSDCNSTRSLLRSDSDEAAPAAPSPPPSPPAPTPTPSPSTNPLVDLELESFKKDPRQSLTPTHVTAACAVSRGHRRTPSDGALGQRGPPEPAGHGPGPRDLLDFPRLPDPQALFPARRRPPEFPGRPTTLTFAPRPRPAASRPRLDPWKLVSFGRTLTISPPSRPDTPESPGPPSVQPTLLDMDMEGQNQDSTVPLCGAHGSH
UniProt Q13131, whole entry, stated change not applied: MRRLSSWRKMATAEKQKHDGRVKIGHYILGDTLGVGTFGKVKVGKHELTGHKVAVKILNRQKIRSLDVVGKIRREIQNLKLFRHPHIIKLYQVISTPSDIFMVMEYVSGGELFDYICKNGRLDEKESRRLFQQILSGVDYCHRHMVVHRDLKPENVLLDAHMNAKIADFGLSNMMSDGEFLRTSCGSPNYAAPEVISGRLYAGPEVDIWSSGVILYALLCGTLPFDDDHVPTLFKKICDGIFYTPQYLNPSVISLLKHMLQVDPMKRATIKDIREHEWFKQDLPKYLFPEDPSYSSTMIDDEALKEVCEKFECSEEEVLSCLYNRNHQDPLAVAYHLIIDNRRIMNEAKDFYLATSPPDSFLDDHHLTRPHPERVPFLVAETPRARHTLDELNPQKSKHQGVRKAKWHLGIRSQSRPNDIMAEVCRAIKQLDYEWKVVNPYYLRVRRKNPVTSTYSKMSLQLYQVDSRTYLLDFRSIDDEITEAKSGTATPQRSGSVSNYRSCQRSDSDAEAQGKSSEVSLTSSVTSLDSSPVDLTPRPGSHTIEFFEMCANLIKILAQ
UniProt P10721, 26-976 T670I: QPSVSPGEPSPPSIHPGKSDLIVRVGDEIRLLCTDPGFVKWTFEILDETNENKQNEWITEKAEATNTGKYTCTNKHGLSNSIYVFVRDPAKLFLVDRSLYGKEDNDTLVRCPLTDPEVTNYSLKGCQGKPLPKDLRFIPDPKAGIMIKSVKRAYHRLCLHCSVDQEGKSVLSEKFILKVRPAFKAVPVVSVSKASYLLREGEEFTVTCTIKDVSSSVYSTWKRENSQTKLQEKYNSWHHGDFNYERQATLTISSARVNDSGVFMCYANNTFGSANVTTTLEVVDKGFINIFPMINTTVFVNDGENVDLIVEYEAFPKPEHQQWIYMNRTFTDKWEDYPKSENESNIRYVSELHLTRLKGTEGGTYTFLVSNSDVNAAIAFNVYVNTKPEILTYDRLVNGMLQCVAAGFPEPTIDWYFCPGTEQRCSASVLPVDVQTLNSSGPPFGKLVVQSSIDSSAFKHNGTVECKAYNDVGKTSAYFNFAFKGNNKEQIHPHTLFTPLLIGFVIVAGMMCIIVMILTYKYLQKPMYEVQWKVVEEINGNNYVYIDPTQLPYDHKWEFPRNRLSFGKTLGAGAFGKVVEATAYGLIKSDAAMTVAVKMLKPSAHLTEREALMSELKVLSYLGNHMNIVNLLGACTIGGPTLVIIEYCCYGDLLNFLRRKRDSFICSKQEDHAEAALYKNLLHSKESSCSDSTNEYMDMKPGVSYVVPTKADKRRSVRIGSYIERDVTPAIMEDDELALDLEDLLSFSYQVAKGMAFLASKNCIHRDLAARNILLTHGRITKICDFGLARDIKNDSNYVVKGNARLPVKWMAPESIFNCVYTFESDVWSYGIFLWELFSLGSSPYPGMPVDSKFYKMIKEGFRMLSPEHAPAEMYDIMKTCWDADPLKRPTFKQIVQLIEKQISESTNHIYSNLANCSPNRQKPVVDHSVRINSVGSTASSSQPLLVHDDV
UniProt Q9H1R3, whole entry, stated change not applied: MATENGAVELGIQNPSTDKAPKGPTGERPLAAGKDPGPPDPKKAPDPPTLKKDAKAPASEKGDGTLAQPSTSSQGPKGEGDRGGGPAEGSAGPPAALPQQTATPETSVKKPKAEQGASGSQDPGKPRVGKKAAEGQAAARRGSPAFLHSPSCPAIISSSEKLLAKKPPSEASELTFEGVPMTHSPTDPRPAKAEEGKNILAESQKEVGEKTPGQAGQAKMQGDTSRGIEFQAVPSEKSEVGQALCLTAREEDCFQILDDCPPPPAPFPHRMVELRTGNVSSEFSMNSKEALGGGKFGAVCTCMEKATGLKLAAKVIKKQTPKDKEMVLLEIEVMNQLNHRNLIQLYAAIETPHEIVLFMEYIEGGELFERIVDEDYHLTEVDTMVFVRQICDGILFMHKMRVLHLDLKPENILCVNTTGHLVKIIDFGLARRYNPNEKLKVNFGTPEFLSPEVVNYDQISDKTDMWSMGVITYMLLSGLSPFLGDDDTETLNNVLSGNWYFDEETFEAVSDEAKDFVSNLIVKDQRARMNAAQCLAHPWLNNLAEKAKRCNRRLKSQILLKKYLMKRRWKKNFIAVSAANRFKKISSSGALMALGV
UniProt Q15759, whole entry, stated change not applied: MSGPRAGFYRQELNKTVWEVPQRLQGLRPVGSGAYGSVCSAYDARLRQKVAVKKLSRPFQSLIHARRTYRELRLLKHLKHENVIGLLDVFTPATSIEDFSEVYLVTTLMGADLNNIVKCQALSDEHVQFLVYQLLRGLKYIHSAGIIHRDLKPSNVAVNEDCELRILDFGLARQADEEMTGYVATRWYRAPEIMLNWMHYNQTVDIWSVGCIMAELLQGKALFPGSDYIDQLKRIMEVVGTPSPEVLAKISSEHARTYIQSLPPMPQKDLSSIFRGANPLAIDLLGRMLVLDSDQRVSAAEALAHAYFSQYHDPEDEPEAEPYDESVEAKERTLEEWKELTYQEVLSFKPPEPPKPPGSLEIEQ

[3] = target: panel of more than 300 wild-type and mutant kinases (313 kinase panel) (Homo sapiens, UniProt P78362)
[4] = target: T2, panel of more than 300 wild-type and mutant kinases (313 kinase panel) (Homo sapiens, UniProt P46734)
T2 sequence (P46734 1-347): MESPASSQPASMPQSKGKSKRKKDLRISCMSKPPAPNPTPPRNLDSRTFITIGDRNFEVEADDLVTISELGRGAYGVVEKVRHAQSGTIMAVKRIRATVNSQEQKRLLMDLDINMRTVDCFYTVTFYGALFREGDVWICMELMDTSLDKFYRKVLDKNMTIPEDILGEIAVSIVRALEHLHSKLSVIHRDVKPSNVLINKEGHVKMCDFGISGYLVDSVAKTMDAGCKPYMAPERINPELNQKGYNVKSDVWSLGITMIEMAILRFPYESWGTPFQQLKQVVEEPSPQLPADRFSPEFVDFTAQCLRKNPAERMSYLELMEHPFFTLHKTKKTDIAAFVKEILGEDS

[5] = target: panel of more than 300 wild-type and mutant kinases (313 kinase panel) (Homo sapiens, UniProt Q02779)
[6] = target: T3, panel of more than 300 wild-type and mutant kinases (313 kinase panel) (Homo sapiens, UniProt Q13043)
T3 sequence (Q13043 1-487): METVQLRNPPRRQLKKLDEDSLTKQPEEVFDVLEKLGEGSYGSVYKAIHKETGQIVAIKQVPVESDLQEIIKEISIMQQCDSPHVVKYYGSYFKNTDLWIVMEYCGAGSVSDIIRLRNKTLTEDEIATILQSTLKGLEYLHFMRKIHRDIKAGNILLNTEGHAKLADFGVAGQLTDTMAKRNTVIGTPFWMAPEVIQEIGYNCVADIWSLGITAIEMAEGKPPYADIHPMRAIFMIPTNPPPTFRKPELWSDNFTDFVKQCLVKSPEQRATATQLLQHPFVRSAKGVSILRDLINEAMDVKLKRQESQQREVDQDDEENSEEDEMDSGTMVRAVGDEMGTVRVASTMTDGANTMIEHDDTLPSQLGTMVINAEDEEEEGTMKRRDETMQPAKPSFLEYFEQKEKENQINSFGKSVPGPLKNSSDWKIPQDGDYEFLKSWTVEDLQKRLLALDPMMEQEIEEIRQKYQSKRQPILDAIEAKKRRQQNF

[7] = target: panel of more than 300 wild-type and mutant kinases (313 kinase panel) (Homo sapiens, UniProt Q13131)
[8] = target: panel of more than 300 wild-type and mutant kinases (313 kinase panel) (Homo sapiens, UniProt P10721, T670I)
[9] = target: panel of more than 300 wild-type and mutant kinases (313 kinase panel) (Homo sapiens, UniProt Q9H1R3)
[10] = target: panel of more than 300 wild-type and mutant kinases (313 kinase panel) (Homo sapiens, UniProt Q15759)

Row | SMILES | %-inhibition, CaMK2γ ([1]; kinase CaMK2γ, 1 μM compound) | %-inhibition of EPHA6 ([2]; kinase EPHA6, compound at 1 μM) | %-inhibition of SRPK2 ([3]; kinase SRPK2, 1 μM) | %-inhibition of MAP2K3 ([4]; kinase MAP2K3, compound at 1 μM) | %-inhibition of MLK2 ([5]; kinase MLK2, 1 μM) | %-inhibition of MST1 ([6]; kinase MST1, 1 μM) | %-inhibition, AMPKα1/β1/γ1 ([7]; kinase AMPKα1/β1/γ1, 1 μM compound) | %-inhibition of KIT(T670I) ([8]; kinase KIT(T670I), compound at 1 μM) | %-inhibition of skMLCK ([9]; kinase skMLCK, 1 μM) | %-inhibition of p38β ([10]; kinase p38β, 1 μM) | %-inhibition, CaMK2γ ([1]; 1 µM) | %-inhibition of EPHA6 ([2]; 1 µM) | %-inhibition of SRPK2 ([3]; 1 µM) | %-inhibition of MAP2K3 ([4]; 1 µM) | %-inhibition of MLK2 ([5]; 1 µM) | %-inhibition of MST1 ([6]; 1 µM) | %-inhibition, AMPKα1/β1/γ1 ([7]; 1 µM) | %-inhibition of KIT(T670I) ([8]; 1 µM) | %-inhibition of skMLCK ([9]; 1 µM) | %-inhibition of p38β ([10]; 1 µM)
1 | CNC(=O)c1ccccc1Sc1ccc2c(/C=C/c3ccccn3)n[nH]c2c1 [axitinib] | -10% | 51% | -4% | 7.58% | 7.53% | 77% | 68% | 96% | 5.34% | -2% | – | – | – | – | – | – | – | – | – | –
2 | COc1cc2ncnc(Nc3ccc(F)c(Cl)c3)c2cc1OCCCN1CCOCC1 [gefitinib] | – | – | – | – | – | – | – | – | – | – | 14% | 85% | 3.46% | 2.53% | 31% | -3% | 5.68% | 8% | 21% | 1.71%
3 | C[C@@H]1CCN(C(=O)CC#N)C[C@@H]1N(C)c1ncnc2[nH]ccc12 [tofacitinib] | – | – | – | – | – | – | – | – | – | – | -9% | -1.06% | -1.66% | 2% | 4.68% | 3.72% | -3.32% | 2.56% | -1.88% | -1.5%
